The target in assay [1] is Unchecked (Rattus norvegicus, UniProt F1LQW0). Description: Inhibition of [3H]norepinephrine reuptake at NET in Sprague-Dawley rat brain cortical synaptosomes incubated for 5 mins prior to [3H]norepinephrine addition measured after 3 mins by scintillation counting analysis. To be noted: read-out: I50, strain Sprague-Dawley.
Assay [2] concerns the target Sodium-dependent dopamine transporter (Rattus norvegicus, UniProt P23977). Description: Inhibition of [3H]dopamine reuptake at DAT in Sprague-Dawley rat brain striatal synaptosomes incubated for 5 mins prior to [3H]dopamine addition measured after 3 mins by scintillation counting analysis. To be noted: read-out: I50, strain Sprague-Dawley.
The target of assay [3] is Unchecked (Oryctolagus cuniculus, UniProt G1TDF9). As to the kind of experiment: Inhibition of [3H]norepinephrine reuptake at NET in New Zealand rabbit thoracic aorta incubated for 30 mins prior to [3H]norepinephrine addition measured after 60 mins by scintillation counting analysis. To be noted: read-out: I50, strain New Zealand.

Sequences of proteins named here, by UniProt entry; tags and fusion partners are left off. Residues count along the entry.
UniProt F1LQW0, 1-617 limits assumed, entry inferred from the test as described: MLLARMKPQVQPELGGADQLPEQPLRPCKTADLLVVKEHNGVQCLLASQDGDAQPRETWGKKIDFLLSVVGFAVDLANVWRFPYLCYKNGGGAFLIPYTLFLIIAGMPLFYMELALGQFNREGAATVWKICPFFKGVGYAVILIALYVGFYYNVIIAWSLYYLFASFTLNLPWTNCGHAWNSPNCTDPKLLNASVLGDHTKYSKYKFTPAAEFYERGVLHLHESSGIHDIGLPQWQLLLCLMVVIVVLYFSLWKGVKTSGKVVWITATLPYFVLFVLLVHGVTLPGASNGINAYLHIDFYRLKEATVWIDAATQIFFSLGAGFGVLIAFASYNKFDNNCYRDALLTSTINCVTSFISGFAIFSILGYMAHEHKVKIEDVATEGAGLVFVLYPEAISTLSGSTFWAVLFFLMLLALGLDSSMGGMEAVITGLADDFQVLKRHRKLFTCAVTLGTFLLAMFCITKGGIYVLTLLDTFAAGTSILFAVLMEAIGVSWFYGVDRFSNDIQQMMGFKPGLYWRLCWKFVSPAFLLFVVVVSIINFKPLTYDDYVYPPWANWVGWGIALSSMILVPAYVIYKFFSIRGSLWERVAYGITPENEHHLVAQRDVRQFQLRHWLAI
UniProt P23977, whole entry: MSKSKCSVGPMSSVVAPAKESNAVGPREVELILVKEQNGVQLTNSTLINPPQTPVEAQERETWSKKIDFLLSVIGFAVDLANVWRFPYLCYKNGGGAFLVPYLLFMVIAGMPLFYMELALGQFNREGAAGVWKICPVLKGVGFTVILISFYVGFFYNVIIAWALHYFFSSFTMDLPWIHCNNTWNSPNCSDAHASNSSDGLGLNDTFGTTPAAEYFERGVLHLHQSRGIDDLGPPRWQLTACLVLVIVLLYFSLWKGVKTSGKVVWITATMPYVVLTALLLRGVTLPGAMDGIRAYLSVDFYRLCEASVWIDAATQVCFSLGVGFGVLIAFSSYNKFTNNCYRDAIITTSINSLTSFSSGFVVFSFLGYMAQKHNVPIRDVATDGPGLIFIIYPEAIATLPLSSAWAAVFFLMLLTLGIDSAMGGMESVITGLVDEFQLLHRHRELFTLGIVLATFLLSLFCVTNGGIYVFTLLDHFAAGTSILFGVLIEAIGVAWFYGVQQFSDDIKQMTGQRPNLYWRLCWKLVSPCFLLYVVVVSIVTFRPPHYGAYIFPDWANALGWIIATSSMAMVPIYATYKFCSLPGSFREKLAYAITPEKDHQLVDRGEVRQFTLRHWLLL
UniProt G1TDF9, 1-617 limits assumed, entry inferred from the test as described: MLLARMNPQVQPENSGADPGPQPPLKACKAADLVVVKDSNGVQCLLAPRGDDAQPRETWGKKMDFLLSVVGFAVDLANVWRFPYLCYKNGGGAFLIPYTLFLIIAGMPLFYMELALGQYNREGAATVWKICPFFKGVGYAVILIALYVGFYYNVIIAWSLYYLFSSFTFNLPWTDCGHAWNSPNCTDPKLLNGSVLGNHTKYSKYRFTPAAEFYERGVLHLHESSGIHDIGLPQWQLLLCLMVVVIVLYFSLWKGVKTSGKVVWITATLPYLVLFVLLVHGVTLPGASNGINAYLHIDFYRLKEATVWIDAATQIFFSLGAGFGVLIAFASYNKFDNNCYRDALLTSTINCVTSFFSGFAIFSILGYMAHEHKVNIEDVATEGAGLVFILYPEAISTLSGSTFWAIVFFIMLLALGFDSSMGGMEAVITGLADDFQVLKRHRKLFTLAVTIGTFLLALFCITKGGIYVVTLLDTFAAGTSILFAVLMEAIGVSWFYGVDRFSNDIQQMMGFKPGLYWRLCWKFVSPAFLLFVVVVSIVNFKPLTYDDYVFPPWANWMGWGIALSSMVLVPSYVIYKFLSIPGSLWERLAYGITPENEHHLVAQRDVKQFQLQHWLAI

Each structure is given as a SMILES string.

For `CCN(CCCl)Cc1ccccc1C`, the IC50 amounted to 80 nM on Unchecked [1], 6090 nM in assay [2] and 100 nM at Unchecked [3].

Values taken from ChEMBL document CHEMBL3227960, “Inhibition of uptake of catecholamines by benzylamine derivatives” (J Med Chem, 1979).
